{"source": "paper PMC13198257", "about": "“An aerosolized dual-action autotaxin inhibitor-PPARγ agonist for the treatment of pulmonary fibrosis” (Cell Reports Medicine, 2026)", "system": "HepG2", "assay": "Cytotoxicity in HepG2 hepatocytes", "format": "cell-based, human"}
{"substance": "2-[[2-Ethyl-6-[4-[2-(3-hydroxyazetidin-1-yl)-2-oxoethyl]piperazin-1-yl]-8-methylimidazo[1,2-a]pyridin-3-yl]methylamino]-4-(4-fluorophenyl)thiazole-5-carbonitrile [GLPG1690, reference compound]", "values": [{"measurement": "CC50", "result": 18.5, "unit": "µM"}]}
